Measured values from article PMC7228038 (Journal of medicinal chemistry, 2019).

Columns and labels:
[1] = system: HCC95 cells; conditions: dose-response up to 30 μM, 5 hours
[2] = Oxidative metabolic stability in murine microsomes; conditions: relative to NAcM-OPT

Compound: CCN1C(=O)[C@@H](NC(=O)c2cccc(C)c2)[C@@H](c2ccc(F)cc2)c2c(C)nn(-c3ccccc3)c21 (relative stereo) [Compound 27, N-(rel-(4S,5S)-7-ethyl-4-(4-fluorophenyl)-3-methyl-6-oxo-1-phenyl-4,5,6,7-tetrahydro-1H-pyrazolo[3,4-b]pyridin-5-yl)-3-methylbenzamide]
- Effect on reactive oxygen species (DCFDA) [1]: neither 27, 87, nor NAcM-OPT have any measurable effects on reactive oxygen species
- Murine microsomal stability compared with that previously reported for NAcM-OPT [2]: ≤ 2 fold
